# The entries are a selection whose mix differs from that of the whole data set. Some salts or complexes appear as unconnected parts, following the source record. The source made the active and inactive calls.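 Rule for the calls: active = growth inhibition above about 58% in most replicates (limit read from the data, passing the limit was not always enough); inconclusive = exactly half the replicates above a set limit; inactive = most replicates below a set limit.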
# Assay: Candida growth reduction under fluconazole – CaCi-2 strain, Alamar Blue fluorescence, primary screen (AID 1979);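 note: all wells also contain fluconazole at 8 µg/ml as a sub-toxic cotreatment; 0% = median of DMSO wells and 100% = median of geldanamycin control wells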
# Details: C. albicans CaCi-2 (fluconazole-resistant clinical isolate) + fluconazole, 48 h, stronger effect = higher value, concentration not given here
row,SMILES,growth inhibition
1,COc1ccc(OP(C)(=O)Nc2cccc(Br)c2)cc1 (centres undefined),inactive: 19%
2,O=P(Nc1ccccn1)(c1ccc(Br)cc1)c1ccc(Br)cc1,inactive: 20.7%
3,CN(C)C1(CNC(=O)c2ccc(Cl)c(S(N)(=O)=O)c2)CCCCC1,inactive: -4.37%
4,CN(C)CCOC(=O)C(O)(c1ccccc1)C1CCCCC1 (centres undefined),inactive: -5.7%
5,O=P(Nc1nc2ccccc2s1)(c1ccccc1)c1ccccc1,inactive: 1.85%
6,C[C@H]1OP(=O)(Oc2ccccc2)[C@H](O)[C@H](O)[C@H]1N=[N+]=[N-] (some centres undefined),inactive: -2.58%
7,COc1ccc(NP(C)(=O)Oc2ccccc2OC)cc1 (centres undefined),inactive: -3.42%
8,O=[N+]([O-])c1ccc(O)c(/C=N/Nc2ccc([N+](=O)[O-])cc2[N+](=O)[O-])c1,inactive: -21.7%
9,O=[N+]([O-])c1ncn(CCn2cnc([N+](=O)[O-])n2)n1,inactive: 9.57%
10,CC(=O)NC(SC(=S)N(C)C)C(Cl)(Cl)Cl (centres undefined),inactive: -0.549%
11,O=[N+]([O-])c1ccc(OP2(=O)COCCO2)cc1 (centres undefined),inactive: 7.18%
12,O=[As](O)(c1ccccc1)c1ccc(O)cc1,inactive: -10.4%
13,O=[N+]([O-])c1cc([N+](=O)[O-])c(NCC2CCS(=O)(=O)C2)c([N+](=O)[O-])c1 (centres undefined),inactive: 39.3%
14,Cc1cc(-c2cccc3ccccc23)c(C)cn1.O=[N+]([O-])c1cc([N+](=O)[O-])c(O)c([N+](=O)[O-])c1,inactive: -0.442%
15,Nc1ccc([As](=O)(O)c2ccc([N+](=O)[O-])cc2)cc1,inactive: 2.75%
16,C(Cc1nn[nH]n1)Cc1nn[nH]n1,inactive: -21.2%
17,O=C(OC1CN2CCC1CC2)c1cccc(Cl)c1 (centres undefined),inactive: -0.222%
18,CP(=O)(Nc1ccc(SC(F)(F)F)cc1)Oc1ccc(F)cc1 (centres undefined),inactive: -2.03%
19,CC(C)C(=O)NC(Sc1ccccc1)C(Cl)(Cl)Cl (centres undefined),inactive: -16.3%
20,O=P(Nc1nccs1)(c1ccccc1)c1ccccc1,inactive: -3.8%
21,CCOP(C)(=S)SCC(=O)NC(C)(CC)C(=O)O (centres undefined),inactive: 25.1%
22,c1nnnn1CCn1cnnn1,inactive: 5.41%
23,CP(=O)(Nc1ccc2c(c1)OCCO2)Oc1ccccc1 (centres undefined),inactive: -8.55%
24,Cc1ccccc1NP(C)(=O)Nc1ccccc1C,inactive: -5.06%
25,CCOc1ccc(C2=NCC(CBr)S2)cc1 (centres undefined),inactive: -12.8%

row,SMILES,growth inhibition
1,CP(=O)(Nc1ccccc1F)Oc1ccccc1 (centres undefined),inactive: -11.9%
2,CC(C)(C)C(=O)NC(Sc1ccccc1)C(Cl)(Cl)Cl (centres undefined),inactive: -27.1%
3,CC(C)c1ccc(OP(C)(=O)Nc2ccc(SC(F)(F)F)cc2)cc1 (centres undefined),inactive: 5.48%
4,CC(=O)c1ccc(N2CC2c2ccncc2)cc1 (centres undefined),inactive: -4.57%
5,O=C(OC1CN2CCC1CC2)c1ccc([N+](=O)[O-])cc1 (centres undefined),inactive: -1.06%
6,O=C(OCCN1CCN(CCOCc2ccccc2)CC1)C(O)(c1ccccc1)c1ccccc1,inactive: -7.28%
7,C[C@@H]1C=CCP(=O)(Oc2ccccc2)O1 (some centres undefined),inactive: -9.62%
8,C[C@H]1OP(=O)(Oc2ccccc2)C[C@@H]2O[C@@H]21 (some centres undefined),inactive: -4.13%
9,COc1ccc2c(c1O)-c1c(O)c(OC)cc3c1[C@H](C2)[N+](C)(C)CC3.O=[N+]([O-])c1cc([N+](=O)[O-])c([O-])c([N+](=O)[O-])c1[O-],inactive: 2.47%
10,CC(=O)Nc1ccc([As](=O)(O)O)c(O)c1,inactive: 1.2%
11,CC(=O)Nc1ccc(Oc2c([N+](=O)[O-])cc([N+](=O)[O-])cc2[N+](=O)[O-])cc1,inactive: -3.61%
12,CCNC(=S)/N=C(\N)N[N+](=O)[O-],inactive: -4.91%
13,O=C(NC1CCS(=O)(=O)C1)NP(=S)(Oc1ccccc1)Oc1ccccc1 (centres undefined),inactive: 6.3%
14,c1ccc(-c2nn[nH]n2)c(-c2nn[nH]n2)c1,inactive: 4.97%
15,CCOC(=O)NC(Sc1ccccc1)C(Cl)(Cl)Cl (centres undefined),inactive: -0.365%
16,Cc1ccc(NP(=O)(Oc2cccc(C)c2)Oc2cccc(C)c2)nc1,inactive: -6.96%
17,CCOC(=O)c1ccc(NP(C)(=O)Oc2ccc(F)cc2)cc1 (centres undefined),inactive: 3.38%
18,COc1ccc(OP(C)(=O)Nc2ccc(SC(F)(F)F)cc2)cc1 (centres undefined),inactive: -5.82%
19,COC(=O)c1cc2c(s1)N=C(c1ccccc1)N(C)P2(=O)N1CCOCC1 (centres undefined),inactive: -9.26%
20,Cc1ccc(OP(=O)(Nc2ccccn2)Oc2ccc(C)cc2)cc1,inactive: -2.26%
21,CC(=O)NC(SC(=S)N(CC(C)C)CC(C)C)C(Cl)(Cl)Cl (centres undefined),inactive: 50.5%
22,O=C(OC1CN2CCC1CC2)c1ccccc1 (centres undefined),inactive: 2.58%
23,CCN(CC)CCCOC(=O)C(O)(c1ccccc1)C1CCCCC1 (centres undefined),inactive: -3.85%
24,CCC(=O)N1C2C3N(C(=O)CC)C1C1N(C(=O)CC)C(C(N1C(=O)CC)N3C(=O)CC)N2C(=O)CC,inactive: 0.389%
25,CP(=O)(Nc1ccccc1)Oc1ccc(F)cc1 (centres undefined),inactive: 0.22%

row,SMILES,growth inhibition
1,Cc1ccccc1OP(=O)(Nc1ccccn1)Oc1ccccc1C,inactive: 2.68%
2,CN(C)C(=O)Oc1noc2ccccc12,inactive: 3.92%
3,CCCCCOc1ccc(NP(C)(=O)Oc2ccc(Cl)cc2Cl)cc1 (centres undefined),inactive: -2.29%
4,O=[N+]([O-])c1cc([N+](=O)[O-])c(OC2CCCCC2O)c([N+](=O)[O-])c1 (centres undefined),inactive: -5%
5,O=C(O)c1ccccc1[As](=O)(O)O,inactive: 3.27%
6,CC(=O)Nc1ccc([As](=O)(O)O)cc1,inactive: 2.05%
7,Cc1cc(C)cc(OP(C)(=O)Nc2cccc(C(F)(F)F)c2)c1 (centres undefined),inactive: 7.43%
8,O=P(Nc1nc2ccc(Cl)cc2s1)(c1ccccc1)c1ccccc1,inactive: 13.5%
9,CCOP(=O)(Nc1ccccc1)OCC,inactive: -0.64%
10,Cc1cc(SC(NC(=O)c2ccc(F)cc2)C(Cl)(Cl)Cl)ncn1 (centres undefined),inactive: 0.783%
11,Cc1ccc(NP(=O)(Oc2ccccc2F)Oc2ccccc2F)nc1,inactive: -8.22%
12,COc1ccccc1OP(C)(=O)Nc1ccc(C)c(C)c1 (centres undefined),inactive: -3.38%
13,COc1ccc(OP(C)(=O)Nc2ccccc2Br)cc1 (centres undefined),inactive: -6.34%
14,Cc1nc2ccc3ccccc3c2o1.O=[N+]([O-])c1cc([N+](=O)[O-])c(O)c([N+](=O)[O-])c1,inactive: 2.75%
15,O=[N+]([O-])c1cc([N+](=O)[O-])c(CCN2CCOCC2)c([N+](=O)[O-])c1,inactive: -1.33%
16,CCN(N=Nc1nonc1N)c1nonc1N,inactive: -1.59%
17,Nc1cccc2ccc([As](=O)(O)O)cc12,inactive: 0.256%
18,CP(=O)(OCCOc1ccccc1)OCCOc1ccccc1,inactive: -0.129%
19,CP(=O)(Nc1ccc(Cl)cc1Cl)Oc1ccccc1 (centres undefined),inactive: -3.83%
20,NC(=O)c1cc([N+](=O)[O-])cc([N+](=O)[O-])c1N,inactive: -3.39%
21,COc1ccccc1OP(C)(=O)Nc1ccc(Br)cc1 (centres undefined),inactive: 7.06%
22,Cc1ccc(N/C(=N/P(=O)(N2CCOCC2)N2CCOCC2)N2CCOCC2)cc1,inactive: 18.8%
23,COc1ccc(OP(C)(=O)Nc2ccccn2)cc1 (centres undefined),inactive: -6.69%
24,COc1ccccc1OP(=O)(Nc1ccc(C)cn1)Oc1ccccc1OC,inactive: -3.04%
25,Cc1ccc(OP(=O)(Nc2nccs2)Oc2ccc(C)cc2)cc1,inactive: -10.5%

row,SMILES,growth inhibition
1,Clc1ccc(Cl)c(NC2=NCC(CBr)S2)c1 (centres undefined),inactive: -9.6%
2,CN(C)CCOC(=O)C(O)(c1ccccc1)C1CCCC1 (centres undefined),inactive: -14.3%
3,CN1CCCC(OC(=O)C(c2ccccc2)c2ccccc2)C1 (centres undefined),inactive: -3.09%
4,CC(C)CC(=O)NC(Sc1ccc(Cl)cc1)C(Cl)(Cl)Cl (centres undefined),inactive: -5.88%
5,O=[N+]([O-])c1cc([N+](=O)[O-])c(Nc2ccccn2)c([N+](=O)[O-])c1,inactive: 57.4%
6,Cc1c(NP(C)(=O)Oc2ccc(C(C)C)cc2)c(=O)n(-c2ccccc2)n1C (centres undefined),inactive: 3.69%
7,Nc1cc(N)c2nonc2c1[N+](=O)[O-],inactive: 24.9%
8,Oc1ccccc1CNc1ccccn1,inactive: 3.57%
9,Cc1c2non([O-])c-2c(C)[n+](=O)[n+]1[O-],inactive: 22.7%
10,O=C(NC(Sc1ccncn1)C(Cl)(Cl)Cl)c1ccccc1 (centres undefined),inactive: -2.48%
11,CP(=O)(Nc1ccccn1)Oc1ccccc1 (centres undefined),inactive: 1.99%
12,COc1ccccc1OP(C)(=O)Nc1ccc(C)cc1C (centres undefined),inactive: -2.91%
13,CCc1ccc(OP(C)(=O)O)cc1,inactive: 1.87%
14,CCN(CC)CC(O)COC(=O)C(O)(c1ccccc1)C1CCCCC1 (centres undefined),inactive: -0.638%
15,COc1ccc(OP(C)(=O)Nc2ccc(Br)cc2)cc1 (centres undefined),inactive: 20.8%
16,COc1ccc(C2=NCC(CBr)S2)cc1 (centres undefined),inactive: -0.749%
17,COc1ccccc1OP(C)(=O)Nc1c(C)n(C)n(-c2ccccc2)c1=O (centres undefined),inactive: -2.75%
18,O=[N+]([O-])c1cccc2n[nH]nc12,inactive: 2.24%
19,CC(=O)N1C2C3N(C(C)=O)C1C1N(C(C)=O)C(C(N1C(C)=O)N3C(C)=O)N2C(C)=O,inactive: 2.31%
20,O=C(OCCCN1CCCC1)C(O)(c1ccccc1)C1CCCCC1 (centres undefined),inactive: -3.35%
21,CP(=O)(Oc1ccccc1)N1CCOC1=O (centres undefined),inactive: -4.05%
22,Cc1ccc(NP(=O)(Oc2ccccc2)Oc2ccccc2)nc1,inactive: 2.41%
23,CCc1nc2c(n1)c1c(non1O)c1c2no[n+]1[O-],inactive: 51.7%
24,O=[N+]([O-])c1cc([N+](=O)[O-])c(CCNc2ccccc2)c([N+](=O)[O-])c1,inactive: -4.14%
